Values quoted from earlier work, collected in patent US7590493B2, “Methods for determining hepatotoxins” (priority 2000, dated 2009).

Settings: after 3 days of drug administration; cited from earlier work

Structure (SMILES): C#C[C@]1(O)CC[C@H]2[C@@H]3CCc4cc(O)ccc4[C@H]3CC[C@@]21C [17α-ethinylestradiol]
- weight of the liver: increase
